Yeast mating assay 2: variants of the scFv Ab-95

The target is the same throughout: PDVDLGDISGINAS, from the HR2 region of SARS-CoV-2 spike.

Parent: Ab-95, a human scFv built as VH, the linker GGGGSGGGGSGGGGS, VL. Only the CDRs of the light chain vary.
VH: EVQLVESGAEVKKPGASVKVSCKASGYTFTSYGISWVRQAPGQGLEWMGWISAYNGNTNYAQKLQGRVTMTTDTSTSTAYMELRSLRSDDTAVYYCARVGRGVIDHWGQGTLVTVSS
VL: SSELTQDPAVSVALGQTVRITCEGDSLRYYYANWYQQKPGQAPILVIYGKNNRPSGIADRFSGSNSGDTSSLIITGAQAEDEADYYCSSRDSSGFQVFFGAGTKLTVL

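AAYL52 was designed without a model: most single CDR substitutions and a random sample of double and triple ones. Affinity was read by AlphaSeq, a pooled yeast mating assay with surface-displayed partners. Binding brings cells together so that they mate, and sequencing counts the barcode pairs among the diploids. Read counts were normalised to the haploid input and turned into Kd by a linear fit to BCL2-family pairs of known affinity, for each replicate. There are three technical replicates.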

Variants are written as CDR1, CDR2 and CDR3 of the light chain (limits as in the source). Parent: EGDSLRYYYAN, GKNNRPS, SSRDSSGFQVF. All variants listed here change G94 of the VL, counted from its first residue. Scale: log10 of Kd in nM, estimated from mating counts; low values are strong binders. Replicates are averaged; those with no signal do not enter the mean. A pair that was not seen in any replicate is written "no signal"; this usually means weak binding, but a binder can also be missed. Background: pairings of library AAYL52 with three empty control strains gave a value in 28% of cases (median 3.91, 5th percentile 2.90). Values in that range, when seen in few replicates, are hard to tell from nonspecific mating. The control count says in how many pairings with the empty strains this scFv gave a signal.

The variant EGDSLRYYYAN | GKNNRPS | SSRDSSSFQVF showed 3.70 (3 of 3 replicates; controls 3 of 9). For EGDSLRYYYAE | GKYNRPS | SSRDSSKFQVF, the assay gave 3.50 (2 of 3 replicates; controls 5 of 9). The variant EGDSLRYYYAN | GKNNRPS | SDRDSSSFQVF showed 2.78 (3 of 3 replicates; controls 7 of 9). The variant EGDSLRFYYAN | GKNNRPS | SSRDSSPFQVM gave 5.02 (1 of 3 replicates; controls 1 of 9). With EGDSLRYYYAN | GKNNRPM | VSRDSSLFQVF the result was 2.83 (3 of 3 replicates; controls 4 of 9). For EGDSLRYYYAN | GKNNRPS | SSRDSSTFQVF, the assay gave 2.69 (3 of 3 replicates; controls 5 of 9).

For EGDSERSYYAN | GKNNRPS | SSRDSSVFQVF, the assay gave no signal (0 of 3 replicates; controls 3 of 9). The variant EGDSLRYYYAN | GKNNIPS | SSRDSSPFWVF showed 3.05 (3 of 3 replicates; controls 2 of 9). The variant EGDSLRYYRAN | GKNNRPS | SSRKSSNFQVF showed 2.94 (3 of 3 replicates; controls 1 of 9). For EGDSLRYYYAS | GKNNRPS | SSRDSSPFQYF, the assay gave 2.99 (1 of 3 replicates; controls 3 of 9). The variant WGDSLRYYYAN | GKNARPS | SSRDSSTFQVF gave 2.78 (3 of 3 replicates; controls 3 of 9). The variant EGDSLRYYDEN | GKNNRPS | SSRDSSMFQVF gave 4.31 (1 of 3 replicates; controls 0 of 9).

The variant EGDSLRYYGAN | GKNNRPS | SSRDSSHFQVF gave no signal (0 of 3 replicates; controls 4 of 9). The variant EEDSLRYYYAN | GKNNRPS | SGRDSSLFQVF showed 3.51 (2 of 3 replicates; controls 5 of 9). With ECDSLRYYYAN | GKRNRPS | SSRDSSTFQVF the result was 3.86 (2 of 3 replicates; controls 2 of 9). The variant EGMSLRYYYAN | GKNNKPS | SSRDSSKFQVF showed 3.81 (1 of 3 replicates; controls 1 of 9). The variant EGDSLRYYYAN | GKNNRPS | SARCSSTFQVF showed 3.77 (3 of 3 replicates; controls 2 of 9). The variant EGDSLRYYYAN | GKNNRPS | SSRPSSYVQVF showed 3.63 (3 of 3 replicates; controls 3 of 9).

For EGDSLRYYYAN | GKNNRPP | SSRDSSKFQNF, the assay gave 4.83 (1 of 3 replicates; controls 1 of 9). With EGDSLRYYYAN | GKNFRPS | SFRDSSRFQVF the result was 4.23 (2 of 3 replicates; controls 2 of 9). For EGDSLRYYYAN | GKNTRDS | SSRDSSTFQVF, the assay gave 4.15 (2 of 3 replicates; controls 2 of 9). The variant EGDSLRYYYAN | GKNNRPS | SSRDSSAFQVF gave 2.23 (3 of 3 replicates; controls 2 of 9). The variant EGDSLRYYYAN | GKNNRFS | SSRDSKKFQVF gave 3.62 (2 of 3 replicates; controls 1 of 9). The variant EGDSLRYYYAN | GKNNRPS | SSRDSSFFQVF gave 2.30 (3 of 3 replicates; controls 3 of 9).

For EGDSLRYYRAN | GKNNRPS | SSRDSSTFQVF, the assay gave 3.48 (1 of 3 replicates; controls 1 of 9). The variant EGDSLRYYYAN | GKNPRPS | SSRDSSVFNVF showed 3.11 (1 of 3 replicates; controls 4 of 9). The variant EGDSLRYYYAN | GFNNRPS | SSRDSSDVQVF showed 3.74 (3 of 3 replicates; controls 5 of 9). The variant EGDSLRNYYAN | GKNNRPS | SSRRSSDFQVF showed 3.11 (1 of 3 replicates; controls 4 of 9). For EGTSLRYYYAN | GKWNRPS | SSRDSSEFQVF, the assay gave 3.91 (1 of 3 replicates; controls 1 of 9). With EGDSQRYYYAN | EKNNRPS | SSRDSSLFQVF the result was 4.03 (2 of 3 replicates; controls 4 of 9).

With EGDSLRYYYAD | GKNNRPS | SSRDSSYFQVF the result was no signal (0 of 3 replicates; controls 1 of 9). For EGFSLRWYYAN | GKNNRPS | SSRDSSIFQVF, the assay gave 3.93 (3 of 3 replicates; controls 4 of 9). With EGDSLRYAYAN | GKNNRPS | SSRNSSSFQVF the result was 2.10 (3 of 3 replicates; controls 4 of 9). The variant FGDSLRYYYAN | GKNNRPS | SSRDSSDFQVS showed 3.73 (2 of 3 replicates; controls 0 of 9). The variant EGDSLRYYYAN | GKPNRPS | SSRDSSKFQVL gave no signal (0 of 3 replicates; controls 1 of 9). The variant EGDSLRYYYAN | GKNNRPS | SSRDSSHFQVF showed 3.14 (2 of 3 replicates; controls 2 of 9).

The variant EGDSLRYYIAN | GDNNRPS | SSRDSSSFQVF gave 2.80 (3 of 3 replicates; controls 7 of 9). The variant EGDSMRYYYAN | GKLNRPS | SSRDSSNFQVF gave 3.89 (2 of 3 replicates; controls 4 of 9). The variant EGDSERYYYAN | GKNNEPS | SSRDSSCFQVF gave no signal (0 of 3 replicates; controls 2 of 9). The variant EGDSLRHYYAN | GKNNRPS | SSRDSSFFQPF gave 2.25 (3 of 3 replicates; controls 0 of 9). For EGDSLYYYYAN | GKTNRPS | SSRDSSYFQVF, the assay gave 5.30 (1 of 3 replicates; controls 2 of 9). For EGDSLRYYYAN | GKNNPPS | SMRDSSAFQVF, the assay gave no signal (0 of 3 replicates; controls 0 of 9).

The variant EGDSLRKYYAN | GKNNRPS | SSRDSSMFQVF showed 3.64 (2 of 3 replicates; controls 1 of 9). The variant EGDSLRYYYAN | GKNNRPS | SPHDSSNFQVF showed 3.84 (2 of 3 replicates; controls 5 of 9). For EGDSTRYYYAN | GKNNRPS | SSRDRSVFQVF, the assay gave 3.10 (1 of 3 replicates; controls 2 of 9).

The opening 6 entries, copied out:

CDR-L1,CDR-L2,CDR-L3,mean log10 Kd (nM),detected,control signals
EGDSLRYYYAN,GKNNRPS,SSRDSSSFQVF,3.70,3 of 3,3 of 9
EGDSLRYYYAE,GKYNRPS,SSRDSSKFQVF,3.50,2 of 3,5 of 9
EGDSLRYYYAN,GKNNRPS,SDRDSSSFQVF,2.78,3 of 3,7 of 9
EGDSLRFYYAN,GKNNRPS,SSRDSSPFQVM,5.02,1 of 3,1 of 9
EGDSLRYYYAN,GKNNRPM,VSRDSSLFQVF,2.83,3 of 3,4 of 9
EGDSLRYYYAN,GKNNRPS,SSRDSSTFQVF,2.69,3 of 3,5 of 9

Values reported by Engelhart et al. 2022, doi:10.1038/s41597-022-01779-4 (FLAb copy).